Where two headings read alike, the source gives them in different places.
Target: imidazoline-2 binding sites (I2BS)
Assay: ^3H-BU99008 competition binding assay with unlabelled ligands in temporal cortex brain homogenate
Design: species or system human
Conditions: for IC50: vs 1 nM ^3H-BU99008, two-site fit; for proportion of Low-affinity (LA; 10^-7 to -6 M) binding sites / proportion of Super high-affinity (SH; 10^-13 to -11 M) binding sites: ^3H-BU99008 competition
Description: After 1 h incubation a similar protocol as saturation binding assay was done and the binding was quantified using the scintillation counter.
The competition binding data was fitted and analysed using non-linear regression competitive-binding function of GraphPad Prism 8.3 software to determine IC50 (half-maximal inhibitory concentration) values.

C#CCN(C)[C@H](C)Cc1ccccc1 [deprenyl, (R)-(-)-Deprenyl]
IC50 (AD temporal cortex, read-out: IC50_1): 0.012 nM | IC50 (AD temporal cortex, read-out: IC50_2): 938 nM | proportion of Low-affinity (LA; 10^-7 to -6 M) binding sites (AD): 50% | proportion of Super high-affinity (SH; 10^-13 to -11 M) binding sites (AD): ~ 50% | IC50 (CN temporal cortex, read-out: IC50_2): 1360 nM | proportion of Low-affinity (LA; 10^-7 to -6 M) binding sites (CN): 50% | proportion of Super high-affinity (SH; 10^-13 to -11 M) binding sites (CN): ~ 50%

Source: publication PMC8758481, “Astroglial tracer BU99008 detects multiple binding sites in Alzheimer’s disease brain” (Molecular Psychiatry, 2021)
